Patent US12540138B2, “Substituted oxaspiro[4.5]decanes as MOR receptor agonists” (priority 2020, dated 2026)

Chains of the proteins cited; added tags and fusions are not shown.
UniProt P35372, whole entry: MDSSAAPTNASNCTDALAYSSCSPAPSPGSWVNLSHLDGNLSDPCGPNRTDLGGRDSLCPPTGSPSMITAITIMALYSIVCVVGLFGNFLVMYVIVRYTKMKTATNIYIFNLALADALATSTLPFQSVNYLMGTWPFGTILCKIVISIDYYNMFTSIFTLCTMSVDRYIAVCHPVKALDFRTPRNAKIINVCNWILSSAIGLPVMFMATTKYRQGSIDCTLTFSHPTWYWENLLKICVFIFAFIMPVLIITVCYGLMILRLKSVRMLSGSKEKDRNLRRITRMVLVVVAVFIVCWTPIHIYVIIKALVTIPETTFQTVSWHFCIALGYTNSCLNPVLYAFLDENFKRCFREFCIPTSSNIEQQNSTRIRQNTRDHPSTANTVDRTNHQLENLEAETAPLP

Target: MOR receptor (PathHunter CHO-K1 OPRM1 β-Arrestin Cell Line) (Homo sapiens, UniProt P35372)
Experiment: cell-based
Conditions: read-out: β-arrestin Emax (%), Morphine was 100%

CC(C)[C@H]1C[C@@H](NCC[C@@]2(c3ccccn3)CCOC3(CCCC3)C2)c2ccnn21 [Compound H-7b, (4R,6R)-6-isopropyl-N-(2-((R)-9-(pyridin-2-yl)-6-oxaspiro[4.5]decan-9-yl)ethyl)-5,6-dihydro-4H-pyrrolo[1,2-b]pyrazol-4-amine]
Emax: 15%
